# Literature values as cited in article PMC7482398 (Molecular Pharmaceutics, 2020).
# System: P-gp
# Settings: NHP, tariquidar infusion 2 h at 4 mg/kg/h; cited from earlier work
smiles,measurement,value
CCN(CC)CCNC(=O)c1cc(Cl)c(N)cc1O[11CH3] [[^11C]metoclopramide],increase of VT compared to baseline,2.2 fold
